Data taken from ChEMBL document CHEMBL5131543, “Studying Lipophilicity Trends of Phosphorus Compounds by 31P-NMR Spectroscopy: A Powerful Tool for the Design of P-Containing Drugs” (J Med Chem, 2022).

Tests used:
[1] = Octanol-water partition coefficient, logP of compound by shake flask method based 31P-NMR analysis
[2] = Basicity of hydrogen bond, pKHB of compound by IR spectroscopy; type: physicochemical
[3] = […]-water partition coefficient, logP of compound by shake flask method based 31P-NMR analysis; conditions: octanol/water

## CCOP(C)(=O)OCCN(C(C)C)C(C)C (stereo not drawn)
[1]
  logP: 0.08

## CP(=O)(OC1CCCCC1)OC1CCCCC1
[1]
  logP: 2.14

## CCOP(C)(=S)OCC
[2]
  pKHB: 1.07

## CCOP(C)(=O)SCC (stereo not drawn)
[2]
  pKHB: 2.46

## CCOP(C)(=O)OCC
[1]
  logP: 0.05
[3]
  logP: 0.05
[2]
  pKHB: 2.72

## COP(C)(=O)OC
[3]
  logP: -0.73
